Experimental findings from the supplement of paper PMC7380943 are described below.

For the assay, the system named is CLZ3 (HCA2 human fibroblast dual HR-NHEJ reporter). In words: HR repair efficiency (tdTomato+ cells) relative to control (log10 fold); higher = more homologous recombination. As to conditions: 5 µM; doxycycline 0.5 ug/mL.

The list shows a part of the results, in another mix than the full data.
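Also: compound given one day before doxycycline, which switches on I-SceI endonuclease expression to create double-strand breaks within the integrated reporter.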

Regarding `COc1c2ccccc2nc2occc12` [Dictamine], the “HR repair efficiency (log10)” value came out at 0.0499.
